Amino acid sequences for entries named in this document (tags omitted). A change or cut given only in a name is not applied to a line headed by its entry.
UniProt Q9Y4B6: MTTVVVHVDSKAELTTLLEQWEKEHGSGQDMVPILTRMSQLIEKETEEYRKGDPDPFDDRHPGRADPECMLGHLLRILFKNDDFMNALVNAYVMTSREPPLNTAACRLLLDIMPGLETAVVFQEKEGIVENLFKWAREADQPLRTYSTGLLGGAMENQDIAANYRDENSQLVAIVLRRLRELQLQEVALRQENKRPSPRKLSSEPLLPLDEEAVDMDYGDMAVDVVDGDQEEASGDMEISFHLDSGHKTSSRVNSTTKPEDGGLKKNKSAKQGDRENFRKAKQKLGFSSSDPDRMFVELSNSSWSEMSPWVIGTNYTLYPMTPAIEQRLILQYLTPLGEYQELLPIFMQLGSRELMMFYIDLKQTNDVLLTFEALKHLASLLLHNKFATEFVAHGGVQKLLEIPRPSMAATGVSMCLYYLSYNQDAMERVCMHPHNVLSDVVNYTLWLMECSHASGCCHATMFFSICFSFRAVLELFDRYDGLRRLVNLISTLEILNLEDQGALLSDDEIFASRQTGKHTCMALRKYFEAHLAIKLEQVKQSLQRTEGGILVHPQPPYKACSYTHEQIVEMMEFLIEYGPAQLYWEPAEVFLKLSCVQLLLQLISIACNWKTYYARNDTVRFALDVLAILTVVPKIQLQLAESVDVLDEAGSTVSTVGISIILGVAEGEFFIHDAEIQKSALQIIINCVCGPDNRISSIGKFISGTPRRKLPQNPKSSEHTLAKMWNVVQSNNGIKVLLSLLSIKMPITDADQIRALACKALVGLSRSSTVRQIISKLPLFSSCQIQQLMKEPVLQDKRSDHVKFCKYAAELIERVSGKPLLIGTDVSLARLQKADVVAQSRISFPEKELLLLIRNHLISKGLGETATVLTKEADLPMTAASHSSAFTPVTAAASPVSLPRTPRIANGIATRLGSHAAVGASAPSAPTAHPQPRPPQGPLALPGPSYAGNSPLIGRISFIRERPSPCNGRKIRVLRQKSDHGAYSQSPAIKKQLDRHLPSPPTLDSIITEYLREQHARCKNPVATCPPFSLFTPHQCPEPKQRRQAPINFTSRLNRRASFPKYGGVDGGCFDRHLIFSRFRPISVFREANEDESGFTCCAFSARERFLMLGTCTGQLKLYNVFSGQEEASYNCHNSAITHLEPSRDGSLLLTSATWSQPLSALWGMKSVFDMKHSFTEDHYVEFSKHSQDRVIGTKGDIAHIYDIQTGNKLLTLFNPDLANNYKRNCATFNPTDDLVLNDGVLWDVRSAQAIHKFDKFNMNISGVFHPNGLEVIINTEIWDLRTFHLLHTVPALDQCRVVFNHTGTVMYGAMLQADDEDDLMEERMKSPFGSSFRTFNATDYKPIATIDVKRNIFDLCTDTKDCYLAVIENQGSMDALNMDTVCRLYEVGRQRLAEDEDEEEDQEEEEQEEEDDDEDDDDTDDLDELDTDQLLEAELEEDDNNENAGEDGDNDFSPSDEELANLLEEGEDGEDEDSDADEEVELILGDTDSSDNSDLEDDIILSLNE

In BindingDB's records for doi:10.1021/acsmedchemlett.3c00104 (Novartis Institutes for Biomedical Research, 2023):

Key:
[1] = molecular target: T1, DDB1- and CUL4-associated factor 1 (Homo sapiens, UniProt Q9Y4B6); assay: Binding affinity to Avi-tagged DCAF1 (1073 to 1399 residues) (unknown origin) expressed in baculovirus infected in Sf9 insect cells by SPR analysis
[2] = molecular target: T1, DDB1- and CUL4-associated factor 1; assay: Binding affinity to Avi-tagged DCAF1 (1039 to 1401 residues) (unknown origin) expressed in baculovirus infected in Sf9 insect cells by NMR analysis

SMILES: Fc1ccccc1C1=Cc2ccccc2C2=NCCN12 [5-(2-Fluoro-phenyl)-2,3-dihydro-imidazo[2,1-a]isoquinoline]
- Kd [1]: > 100 µM
- Kd [2]: > 500 µM
